For assay [1], the target named is T1, Histone deacetylase (Homo sapiens) (UniProt Q13547+O15379+Q9UBN7+Q92769+Q9UQL6+Q8WUI4+Q9BY41+Q96DB2+P56524+Q9UKV0+Q969S8). The assay is described as follows: Inhibition of HDAC in human HCT116 cells assessed as increase in acetylated p53 levels after 16 hrs by Western blot analysis. It counts as cell-based. The method, boiled down:
(§1)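 HCT116 cells lysed in RIPA after washes in cold PBS. 40 μg protein run on 10−12% SDS-PAGE and transferred to nitrocellulose. Membrane blocked in 5% milk/TBST for 0.5 h, primary antibodies 1:1000 overnight at 4 °C, secondary 1:1000 for 1 h, ECL detection.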

By UniProt entry, the sequences of proteins in these tests, tags left out. Where a name states a change or a piece, a line headed by the entry shows the natural chain unless it says otherwise.
UniProt Q13547: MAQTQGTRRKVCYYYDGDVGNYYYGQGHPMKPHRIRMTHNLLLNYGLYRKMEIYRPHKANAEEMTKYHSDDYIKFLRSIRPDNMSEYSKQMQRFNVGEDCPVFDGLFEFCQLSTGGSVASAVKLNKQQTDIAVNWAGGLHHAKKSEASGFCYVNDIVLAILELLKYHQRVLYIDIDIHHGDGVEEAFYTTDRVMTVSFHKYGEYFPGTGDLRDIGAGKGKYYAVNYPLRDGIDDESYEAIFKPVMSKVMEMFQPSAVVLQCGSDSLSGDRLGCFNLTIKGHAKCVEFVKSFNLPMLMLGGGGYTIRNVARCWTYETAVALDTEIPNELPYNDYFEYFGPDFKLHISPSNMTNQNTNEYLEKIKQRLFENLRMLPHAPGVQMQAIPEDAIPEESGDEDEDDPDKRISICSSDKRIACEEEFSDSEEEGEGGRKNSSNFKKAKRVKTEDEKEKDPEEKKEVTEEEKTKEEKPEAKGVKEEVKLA
UniProt O15379: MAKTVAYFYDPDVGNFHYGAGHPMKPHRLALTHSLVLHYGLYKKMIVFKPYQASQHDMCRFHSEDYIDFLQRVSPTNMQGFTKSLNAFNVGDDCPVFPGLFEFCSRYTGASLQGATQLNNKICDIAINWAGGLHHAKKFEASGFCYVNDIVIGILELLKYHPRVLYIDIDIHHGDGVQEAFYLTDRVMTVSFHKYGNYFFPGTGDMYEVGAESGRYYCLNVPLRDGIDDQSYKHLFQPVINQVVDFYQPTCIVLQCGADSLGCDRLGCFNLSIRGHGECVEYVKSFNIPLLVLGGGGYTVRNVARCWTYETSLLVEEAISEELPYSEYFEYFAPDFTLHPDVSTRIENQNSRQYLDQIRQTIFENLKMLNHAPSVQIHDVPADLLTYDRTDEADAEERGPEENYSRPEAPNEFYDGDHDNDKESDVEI
UniProt Q9UBN7: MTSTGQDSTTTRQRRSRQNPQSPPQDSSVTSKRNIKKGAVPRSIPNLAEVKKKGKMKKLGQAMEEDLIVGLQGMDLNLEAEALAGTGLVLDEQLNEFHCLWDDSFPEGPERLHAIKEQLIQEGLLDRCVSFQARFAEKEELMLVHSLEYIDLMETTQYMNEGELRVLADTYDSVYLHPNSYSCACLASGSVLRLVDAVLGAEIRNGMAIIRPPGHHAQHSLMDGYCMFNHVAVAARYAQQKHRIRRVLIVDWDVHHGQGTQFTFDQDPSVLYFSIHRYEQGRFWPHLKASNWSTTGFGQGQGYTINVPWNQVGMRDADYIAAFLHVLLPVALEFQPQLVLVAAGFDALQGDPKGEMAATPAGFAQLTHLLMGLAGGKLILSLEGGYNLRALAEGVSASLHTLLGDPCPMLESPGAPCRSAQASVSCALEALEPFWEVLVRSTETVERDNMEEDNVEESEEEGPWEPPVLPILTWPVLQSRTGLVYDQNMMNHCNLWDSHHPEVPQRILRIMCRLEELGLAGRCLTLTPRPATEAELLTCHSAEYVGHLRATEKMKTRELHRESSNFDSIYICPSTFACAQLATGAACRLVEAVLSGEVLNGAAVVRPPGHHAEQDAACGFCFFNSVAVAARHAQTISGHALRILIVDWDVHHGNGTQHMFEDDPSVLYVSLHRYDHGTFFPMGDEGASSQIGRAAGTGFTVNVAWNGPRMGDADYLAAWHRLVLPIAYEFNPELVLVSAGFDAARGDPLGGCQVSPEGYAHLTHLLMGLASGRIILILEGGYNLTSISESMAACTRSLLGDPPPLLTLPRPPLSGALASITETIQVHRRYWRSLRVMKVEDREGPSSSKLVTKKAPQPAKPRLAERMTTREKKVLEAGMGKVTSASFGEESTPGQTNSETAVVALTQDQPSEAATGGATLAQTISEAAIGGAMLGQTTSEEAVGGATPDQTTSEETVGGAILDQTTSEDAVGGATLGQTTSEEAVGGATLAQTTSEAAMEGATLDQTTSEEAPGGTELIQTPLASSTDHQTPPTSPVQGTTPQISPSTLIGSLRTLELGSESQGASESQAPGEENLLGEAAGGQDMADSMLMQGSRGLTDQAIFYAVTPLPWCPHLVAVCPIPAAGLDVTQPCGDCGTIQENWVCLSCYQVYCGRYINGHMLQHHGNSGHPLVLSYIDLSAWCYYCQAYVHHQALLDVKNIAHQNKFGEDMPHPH
UniProt Q9UQL6: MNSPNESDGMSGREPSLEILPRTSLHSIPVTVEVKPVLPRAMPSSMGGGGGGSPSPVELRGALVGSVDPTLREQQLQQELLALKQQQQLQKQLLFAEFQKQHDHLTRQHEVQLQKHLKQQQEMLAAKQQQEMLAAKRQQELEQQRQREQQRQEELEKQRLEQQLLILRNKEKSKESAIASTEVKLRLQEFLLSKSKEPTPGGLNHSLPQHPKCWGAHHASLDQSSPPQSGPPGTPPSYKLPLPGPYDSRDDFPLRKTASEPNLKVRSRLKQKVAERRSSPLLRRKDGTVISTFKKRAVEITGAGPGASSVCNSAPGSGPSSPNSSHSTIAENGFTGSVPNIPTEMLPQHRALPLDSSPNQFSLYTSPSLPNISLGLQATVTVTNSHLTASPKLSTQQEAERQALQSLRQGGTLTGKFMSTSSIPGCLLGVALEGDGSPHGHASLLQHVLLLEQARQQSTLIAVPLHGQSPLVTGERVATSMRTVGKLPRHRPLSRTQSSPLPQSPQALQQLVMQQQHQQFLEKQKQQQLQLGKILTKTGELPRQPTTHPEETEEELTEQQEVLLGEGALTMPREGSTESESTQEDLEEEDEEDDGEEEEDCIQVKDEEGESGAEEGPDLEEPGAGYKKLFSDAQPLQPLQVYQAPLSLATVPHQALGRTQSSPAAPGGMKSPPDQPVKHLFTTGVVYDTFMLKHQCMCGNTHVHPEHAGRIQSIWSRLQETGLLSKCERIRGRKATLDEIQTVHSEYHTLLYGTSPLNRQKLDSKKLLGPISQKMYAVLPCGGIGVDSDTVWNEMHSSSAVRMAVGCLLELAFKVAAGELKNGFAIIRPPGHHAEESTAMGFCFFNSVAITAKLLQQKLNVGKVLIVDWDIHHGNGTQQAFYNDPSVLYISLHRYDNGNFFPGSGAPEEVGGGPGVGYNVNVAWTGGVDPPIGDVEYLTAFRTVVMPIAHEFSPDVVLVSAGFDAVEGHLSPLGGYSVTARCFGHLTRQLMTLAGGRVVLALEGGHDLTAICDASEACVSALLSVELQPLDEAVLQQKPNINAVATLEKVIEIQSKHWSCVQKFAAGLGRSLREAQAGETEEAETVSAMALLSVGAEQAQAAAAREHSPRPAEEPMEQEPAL
UniProt Q8WUI4: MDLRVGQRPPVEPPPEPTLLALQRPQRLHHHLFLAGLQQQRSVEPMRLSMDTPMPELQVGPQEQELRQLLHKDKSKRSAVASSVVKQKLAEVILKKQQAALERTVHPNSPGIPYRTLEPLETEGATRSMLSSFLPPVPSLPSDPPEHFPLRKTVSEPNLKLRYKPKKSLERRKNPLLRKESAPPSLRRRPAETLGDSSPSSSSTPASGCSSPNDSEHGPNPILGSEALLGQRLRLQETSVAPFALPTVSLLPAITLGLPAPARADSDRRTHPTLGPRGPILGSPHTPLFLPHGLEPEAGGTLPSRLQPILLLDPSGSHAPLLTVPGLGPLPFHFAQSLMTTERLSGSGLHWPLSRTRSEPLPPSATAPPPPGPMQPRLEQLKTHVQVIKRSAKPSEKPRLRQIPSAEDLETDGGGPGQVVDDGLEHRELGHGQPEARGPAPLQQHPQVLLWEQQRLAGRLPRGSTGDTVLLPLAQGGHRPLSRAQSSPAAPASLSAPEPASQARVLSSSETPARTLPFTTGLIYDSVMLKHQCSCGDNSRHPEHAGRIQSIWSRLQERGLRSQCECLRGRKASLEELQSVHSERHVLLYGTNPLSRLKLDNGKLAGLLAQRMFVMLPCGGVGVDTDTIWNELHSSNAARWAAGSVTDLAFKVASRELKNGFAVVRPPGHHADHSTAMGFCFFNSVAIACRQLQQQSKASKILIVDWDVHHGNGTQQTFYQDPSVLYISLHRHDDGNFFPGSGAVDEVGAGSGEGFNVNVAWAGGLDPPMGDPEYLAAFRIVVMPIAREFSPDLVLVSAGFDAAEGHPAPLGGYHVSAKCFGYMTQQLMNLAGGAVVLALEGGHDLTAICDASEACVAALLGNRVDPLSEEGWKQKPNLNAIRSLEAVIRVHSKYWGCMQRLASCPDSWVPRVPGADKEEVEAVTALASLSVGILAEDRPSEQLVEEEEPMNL
UniProt Q96DB2: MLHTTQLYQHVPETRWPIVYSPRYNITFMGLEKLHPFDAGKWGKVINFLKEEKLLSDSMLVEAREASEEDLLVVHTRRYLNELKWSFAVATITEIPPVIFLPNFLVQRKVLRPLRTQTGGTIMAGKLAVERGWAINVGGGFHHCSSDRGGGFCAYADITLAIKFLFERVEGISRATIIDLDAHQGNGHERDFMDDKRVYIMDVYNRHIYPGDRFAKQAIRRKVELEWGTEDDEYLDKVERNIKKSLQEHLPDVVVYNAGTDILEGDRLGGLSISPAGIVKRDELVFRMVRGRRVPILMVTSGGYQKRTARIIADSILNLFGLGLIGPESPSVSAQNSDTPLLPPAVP
UniProt P56524: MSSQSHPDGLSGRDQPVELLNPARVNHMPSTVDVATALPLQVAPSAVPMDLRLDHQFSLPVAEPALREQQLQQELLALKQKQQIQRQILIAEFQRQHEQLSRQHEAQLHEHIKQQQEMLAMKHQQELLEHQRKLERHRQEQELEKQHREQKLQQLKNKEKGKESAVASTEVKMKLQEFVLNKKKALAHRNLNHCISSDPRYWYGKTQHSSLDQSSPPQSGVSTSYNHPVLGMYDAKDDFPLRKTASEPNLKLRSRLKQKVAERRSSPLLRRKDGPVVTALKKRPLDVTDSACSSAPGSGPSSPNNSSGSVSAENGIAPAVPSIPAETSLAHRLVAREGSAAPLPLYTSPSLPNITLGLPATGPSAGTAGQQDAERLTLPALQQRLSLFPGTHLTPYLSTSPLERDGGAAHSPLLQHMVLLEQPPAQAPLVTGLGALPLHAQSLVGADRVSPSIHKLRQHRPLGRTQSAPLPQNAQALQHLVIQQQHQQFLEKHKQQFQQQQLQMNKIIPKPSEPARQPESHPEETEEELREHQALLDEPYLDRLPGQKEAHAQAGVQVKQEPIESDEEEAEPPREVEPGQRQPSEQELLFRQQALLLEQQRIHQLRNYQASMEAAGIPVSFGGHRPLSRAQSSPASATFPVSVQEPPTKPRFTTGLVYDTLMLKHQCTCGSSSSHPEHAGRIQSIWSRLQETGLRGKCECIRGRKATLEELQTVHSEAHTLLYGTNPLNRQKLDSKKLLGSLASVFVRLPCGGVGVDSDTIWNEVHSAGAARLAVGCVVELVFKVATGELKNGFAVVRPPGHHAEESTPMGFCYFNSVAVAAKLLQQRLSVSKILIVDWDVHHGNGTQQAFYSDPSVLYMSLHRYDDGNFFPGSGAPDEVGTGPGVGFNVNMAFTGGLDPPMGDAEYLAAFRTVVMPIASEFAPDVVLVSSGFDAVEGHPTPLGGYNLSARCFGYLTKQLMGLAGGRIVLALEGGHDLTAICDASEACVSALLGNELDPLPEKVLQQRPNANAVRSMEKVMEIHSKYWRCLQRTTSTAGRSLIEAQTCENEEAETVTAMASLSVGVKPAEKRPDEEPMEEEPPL
UniProt Q969S8: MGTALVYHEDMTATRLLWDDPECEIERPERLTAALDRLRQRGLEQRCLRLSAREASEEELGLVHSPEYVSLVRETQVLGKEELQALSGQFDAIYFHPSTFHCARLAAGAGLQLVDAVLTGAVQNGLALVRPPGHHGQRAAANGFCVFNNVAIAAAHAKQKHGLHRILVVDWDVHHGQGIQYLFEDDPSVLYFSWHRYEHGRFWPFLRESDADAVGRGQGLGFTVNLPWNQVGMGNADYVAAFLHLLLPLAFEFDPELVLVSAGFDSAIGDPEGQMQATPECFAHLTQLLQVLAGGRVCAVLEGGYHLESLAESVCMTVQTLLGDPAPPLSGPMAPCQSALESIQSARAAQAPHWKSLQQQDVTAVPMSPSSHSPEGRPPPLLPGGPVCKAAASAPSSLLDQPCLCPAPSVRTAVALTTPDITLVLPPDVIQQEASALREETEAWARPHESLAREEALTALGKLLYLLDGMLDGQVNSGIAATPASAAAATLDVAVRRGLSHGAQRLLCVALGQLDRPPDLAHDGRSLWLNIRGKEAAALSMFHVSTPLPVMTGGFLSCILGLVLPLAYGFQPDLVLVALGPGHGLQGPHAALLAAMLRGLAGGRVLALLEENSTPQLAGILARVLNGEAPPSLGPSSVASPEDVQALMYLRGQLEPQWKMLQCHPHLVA

The target of assay [2] is T1, Histone deacetylase (Homo sapiens). Put plainly: Inhibition of HDAC in human HCT116 cells assessed as increase in acetylated histone H3 levels after 16 hrs by Western blot analysis. In kind it is cell-based. The method in brief:
as §1

Turning to `COc1ncc(-c2cc(OCCCCCCC(=O)NO)c3ncnc(C)c3c2)cc1F`, the inhibition result in assay [1] and in assay [2] was “Dose-dependent effect” throughout.
